Reference: publication PMC3539767 (Bioorganic & medicinal chemistry letters, 2012)

By UniProt entry, the sequences of proteins in these tests, tags left out. Residues count along the entry.
UniProt P31424, 21-1203: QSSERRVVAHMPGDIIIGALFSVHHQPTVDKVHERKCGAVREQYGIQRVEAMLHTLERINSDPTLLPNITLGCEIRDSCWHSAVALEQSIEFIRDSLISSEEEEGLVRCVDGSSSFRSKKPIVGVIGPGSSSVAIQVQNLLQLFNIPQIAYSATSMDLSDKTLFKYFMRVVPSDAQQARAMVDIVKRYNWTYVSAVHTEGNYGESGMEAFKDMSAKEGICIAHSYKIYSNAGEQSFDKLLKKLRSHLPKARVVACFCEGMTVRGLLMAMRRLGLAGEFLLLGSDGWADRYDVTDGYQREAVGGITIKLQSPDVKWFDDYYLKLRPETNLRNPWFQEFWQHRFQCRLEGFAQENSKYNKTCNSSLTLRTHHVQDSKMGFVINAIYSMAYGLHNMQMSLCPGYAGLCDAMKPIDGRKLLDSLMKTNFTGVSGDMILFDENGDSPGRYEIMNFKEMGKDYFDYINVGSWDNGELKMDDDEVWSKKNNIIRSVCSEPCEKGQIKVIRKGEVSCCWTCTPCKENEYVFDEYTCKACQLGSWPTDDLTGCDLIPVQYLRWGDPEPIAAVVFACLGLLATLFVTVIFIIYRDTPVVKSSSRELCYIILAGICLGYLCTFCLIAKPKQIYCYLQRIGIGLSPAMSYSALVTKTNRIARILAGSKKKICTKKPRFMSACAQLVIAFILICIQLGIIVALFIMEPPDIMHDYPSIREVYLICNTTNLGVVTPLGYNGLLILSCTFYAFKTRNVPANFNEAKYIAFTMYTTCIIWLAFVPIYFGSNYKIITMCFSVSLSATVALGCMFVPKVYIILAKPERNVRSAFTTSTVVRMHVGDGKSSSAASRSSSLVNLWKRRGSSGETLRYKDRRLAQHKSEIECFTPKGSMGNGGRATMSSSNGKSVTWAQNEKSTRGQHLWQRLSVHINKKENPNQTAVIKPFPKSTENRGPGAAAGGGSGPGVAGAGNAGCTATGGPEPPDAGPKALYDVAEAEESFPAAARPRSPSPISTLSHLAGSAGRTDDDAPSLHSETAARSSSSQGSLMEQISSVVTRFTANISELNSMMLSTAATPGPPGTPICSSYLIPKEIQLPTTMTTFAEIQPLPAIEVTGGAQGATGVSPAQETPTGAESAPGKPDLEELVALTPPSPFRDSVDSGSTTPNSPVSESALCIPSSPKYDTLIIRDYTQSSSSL

Key:
rat mGlu5 = rat mGlu5 (Rattus norvegicus, UniProt P31424); test: calcium mobilization PAM assay, high-expressing rat mGlu5 HTS cell line; format: cell-based; conditions: value for 15a estimated because of agonist activity

Row | Structure (SMILES) | fold shift (rat mGlu5) | selectivity versus the other mGlus (mGlu1–4,6–8)
1 | CS(=O)(=O)N(CC(=O)Nc1ccccc1)c1ccccc1Cl [15a] | ~ 1.2 fold | –
2 | CS(=O)(=O)N(CC(=O)NCC1CC1)c1cc(C(F)(F)F)ccc1Cl [compound 24] | – | highly selective
